# Target: MBP-tagged full-length CYRI-A (mouse) (UniProt Q8BHZ0)
# Test: SPR; MBP-tagged CYRI immobilised on Sensor chip CM5; purified untagged RAC1 Q61L titrated at different concentrations; steady-state responses fitted to a 1:1 binding model
substance,measurement,value
untagged full-length RAC1 Q61L (from UniProt P63000 1-192) (natural protein; other documents disagree on this pair),Kd,13 µM
